The chains behind the UniProt entries cited, without tags or fusion partners. Where a name states a change or a piece, a line headed by the entry shows the natural chain unless it says otherwise.
UniProt Q13547: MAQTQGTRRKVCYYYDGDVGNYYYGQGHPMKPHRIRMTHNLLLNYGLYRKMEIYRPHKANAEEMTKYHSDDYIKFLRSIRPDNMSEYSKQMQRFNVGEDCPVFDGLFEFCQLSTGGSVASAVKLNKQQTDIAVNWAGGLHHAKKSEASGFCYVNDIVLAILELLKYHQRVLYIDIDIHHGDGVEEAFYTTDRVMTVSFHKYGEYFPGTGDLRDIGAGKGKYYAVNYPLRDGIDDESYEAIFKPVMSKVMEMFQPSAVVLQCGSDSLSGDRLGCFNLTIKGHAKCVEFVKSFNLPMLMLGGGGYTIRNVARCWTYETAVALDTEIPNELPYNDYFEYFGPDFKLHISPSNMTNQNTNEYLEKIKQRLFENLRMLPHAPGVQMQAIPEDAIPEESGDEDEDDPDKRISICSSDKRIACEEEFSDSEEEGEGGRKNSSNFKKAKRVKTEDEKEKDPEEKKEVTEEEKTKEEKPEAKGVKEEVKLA
UniProt O15379: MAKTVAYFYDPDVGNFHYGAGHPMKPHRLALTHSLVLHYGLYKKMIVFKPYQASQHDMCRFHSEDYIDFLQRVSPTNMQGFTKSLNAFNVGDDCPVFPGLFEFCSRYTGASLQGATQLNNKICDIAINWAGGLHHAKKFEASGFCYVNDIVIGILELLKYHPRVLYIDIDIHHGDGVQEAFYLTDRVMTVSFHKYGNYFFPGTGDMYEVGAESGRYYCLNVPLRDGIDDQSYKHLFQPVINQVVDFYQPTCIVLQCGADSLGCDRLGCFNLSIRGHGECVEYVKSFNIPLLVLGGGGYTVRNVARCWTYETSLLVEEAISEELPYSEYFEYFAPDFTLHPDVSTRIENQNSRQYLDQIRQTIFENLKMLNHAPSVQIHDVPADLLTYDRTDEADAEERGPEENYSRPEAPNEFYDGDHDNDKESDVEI
UniProt Q9UBN7: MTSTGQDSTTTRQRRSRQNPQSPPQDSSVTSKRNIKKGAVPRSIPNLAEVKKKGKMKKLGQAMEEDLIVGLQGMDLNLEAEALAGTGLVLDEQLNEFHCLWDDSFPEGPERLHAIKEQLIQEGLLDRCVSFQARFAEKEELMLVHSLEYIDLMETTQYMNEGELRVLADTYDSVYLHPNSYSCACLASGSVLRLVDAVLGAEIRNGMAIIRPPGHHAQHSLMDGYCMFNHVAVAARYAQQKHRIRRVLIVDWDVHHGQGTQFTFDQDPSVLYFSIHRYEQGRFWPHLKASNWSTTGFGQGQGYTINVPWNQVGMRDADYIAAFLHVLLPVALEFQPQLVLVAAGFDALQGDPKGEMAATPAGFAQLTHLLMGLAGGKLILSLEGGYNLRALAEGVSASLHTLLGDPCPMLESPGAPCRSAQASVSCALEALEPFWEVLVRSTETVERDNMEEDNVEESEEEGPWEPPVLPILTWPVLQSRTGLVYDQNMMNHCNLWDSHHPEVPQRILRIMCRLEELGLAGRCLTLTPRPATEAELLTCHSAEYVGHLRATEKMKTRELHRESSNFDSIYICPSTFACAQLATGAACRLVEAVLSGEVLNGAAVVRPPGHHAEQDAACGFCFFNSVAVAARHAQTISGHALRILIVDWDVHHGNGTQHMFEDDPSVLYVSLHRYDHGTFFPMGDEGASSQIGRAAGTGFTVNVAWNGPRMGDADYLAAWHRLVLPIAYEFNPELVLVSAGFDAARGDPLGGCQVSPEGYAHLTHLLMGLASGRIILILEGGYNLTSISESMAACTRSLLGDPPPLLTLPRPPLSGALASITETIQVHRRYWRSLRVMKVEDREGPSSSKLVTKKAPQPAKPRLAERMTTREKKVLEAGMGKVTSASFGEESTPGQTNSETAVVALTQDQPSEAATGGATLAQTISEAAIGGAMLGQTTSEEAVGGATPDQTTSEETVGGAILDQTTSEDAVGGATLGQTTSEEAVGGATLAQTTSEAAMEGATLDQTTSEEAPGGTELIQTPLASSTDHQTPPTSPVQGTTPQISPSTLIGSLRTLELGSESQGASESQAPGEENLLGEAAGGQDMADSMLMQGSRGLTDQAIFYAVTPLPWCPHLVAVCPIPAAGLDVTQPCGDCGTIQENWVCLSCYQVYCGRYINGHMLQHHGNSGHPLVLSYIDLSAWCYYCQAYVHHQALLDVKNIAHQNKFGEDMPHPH
UniProt Q8WUI4: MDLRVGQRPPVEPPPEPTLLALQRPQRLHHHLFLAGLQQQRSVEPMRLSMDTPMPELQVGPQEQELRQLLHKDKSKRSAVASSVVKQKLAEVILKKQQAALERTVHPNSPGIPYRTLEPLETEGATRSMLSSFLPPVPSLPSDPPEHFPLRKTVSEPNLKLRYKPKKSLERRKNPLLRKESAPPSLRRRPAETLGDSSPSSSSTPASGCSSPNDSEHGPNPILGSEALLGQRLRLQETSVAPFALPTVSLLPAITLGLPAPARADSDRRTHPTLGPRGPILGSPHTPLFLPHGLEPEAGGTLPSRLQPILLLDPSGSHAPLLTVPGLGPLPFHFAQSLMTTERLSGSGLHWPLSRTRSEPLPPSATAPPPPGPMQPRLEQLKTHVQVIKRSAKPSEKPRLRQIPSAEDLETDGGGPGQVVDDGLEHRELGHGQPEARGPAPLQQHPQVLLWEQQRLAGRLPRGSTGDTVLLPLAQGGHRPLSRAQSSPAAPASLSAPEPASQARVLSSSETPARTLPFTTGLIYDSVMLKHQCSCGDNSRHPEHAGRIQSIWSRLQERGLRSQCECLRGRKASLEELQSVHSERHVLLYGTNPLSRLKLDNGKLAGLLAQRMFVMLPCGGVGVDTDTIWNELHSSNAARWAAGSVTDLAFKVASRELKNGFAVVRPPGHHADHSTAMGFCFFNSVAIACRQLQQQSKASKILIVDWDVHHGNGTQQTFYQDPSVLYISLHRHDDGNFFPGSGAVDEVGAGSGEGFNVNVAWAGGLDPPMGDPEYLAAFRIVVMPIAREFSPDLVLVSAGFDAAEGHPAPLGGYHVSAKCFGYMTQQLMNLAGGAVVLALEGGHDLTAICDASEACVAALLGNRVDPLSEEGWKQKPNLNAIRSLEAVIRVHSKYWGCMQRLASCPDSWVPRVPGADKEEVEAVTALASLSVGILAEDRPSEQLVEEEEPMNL
UniProt Q9BY41: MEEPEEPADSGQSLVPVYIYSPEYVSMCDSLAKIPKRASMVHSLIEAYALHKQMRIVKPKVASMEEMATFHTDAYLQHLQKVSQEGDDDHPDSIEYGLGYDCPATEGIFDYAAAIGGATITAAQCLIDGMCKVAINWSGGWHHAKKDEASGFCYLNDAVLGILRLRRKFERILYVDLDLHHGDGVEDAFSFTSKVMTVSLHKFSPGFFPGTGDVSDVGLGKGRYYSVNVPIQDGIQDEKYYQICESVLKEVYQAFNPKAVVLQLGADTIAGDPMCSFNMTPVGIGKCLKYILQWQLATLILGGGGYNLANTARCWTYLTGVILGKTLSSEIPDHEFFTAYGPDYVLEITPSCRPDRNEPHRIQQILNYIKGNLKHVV
UniProt Q96DB2: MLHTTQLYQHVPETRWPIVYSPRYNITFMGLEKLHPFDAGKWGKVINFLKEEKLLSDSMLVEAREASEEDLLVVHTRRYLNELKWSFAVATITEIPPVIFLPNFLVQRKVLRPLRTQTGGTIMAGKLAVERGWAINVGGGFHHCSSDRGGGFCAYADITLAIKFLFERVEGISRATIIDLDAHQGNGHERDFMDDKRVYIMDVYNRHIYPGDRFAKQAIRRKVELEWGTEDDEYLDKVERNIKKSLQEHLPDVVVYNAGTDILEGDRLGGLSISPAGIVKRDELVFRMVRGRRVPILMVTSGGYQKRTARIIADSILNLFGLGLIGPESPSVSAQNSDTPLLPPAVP
UniProt P56524: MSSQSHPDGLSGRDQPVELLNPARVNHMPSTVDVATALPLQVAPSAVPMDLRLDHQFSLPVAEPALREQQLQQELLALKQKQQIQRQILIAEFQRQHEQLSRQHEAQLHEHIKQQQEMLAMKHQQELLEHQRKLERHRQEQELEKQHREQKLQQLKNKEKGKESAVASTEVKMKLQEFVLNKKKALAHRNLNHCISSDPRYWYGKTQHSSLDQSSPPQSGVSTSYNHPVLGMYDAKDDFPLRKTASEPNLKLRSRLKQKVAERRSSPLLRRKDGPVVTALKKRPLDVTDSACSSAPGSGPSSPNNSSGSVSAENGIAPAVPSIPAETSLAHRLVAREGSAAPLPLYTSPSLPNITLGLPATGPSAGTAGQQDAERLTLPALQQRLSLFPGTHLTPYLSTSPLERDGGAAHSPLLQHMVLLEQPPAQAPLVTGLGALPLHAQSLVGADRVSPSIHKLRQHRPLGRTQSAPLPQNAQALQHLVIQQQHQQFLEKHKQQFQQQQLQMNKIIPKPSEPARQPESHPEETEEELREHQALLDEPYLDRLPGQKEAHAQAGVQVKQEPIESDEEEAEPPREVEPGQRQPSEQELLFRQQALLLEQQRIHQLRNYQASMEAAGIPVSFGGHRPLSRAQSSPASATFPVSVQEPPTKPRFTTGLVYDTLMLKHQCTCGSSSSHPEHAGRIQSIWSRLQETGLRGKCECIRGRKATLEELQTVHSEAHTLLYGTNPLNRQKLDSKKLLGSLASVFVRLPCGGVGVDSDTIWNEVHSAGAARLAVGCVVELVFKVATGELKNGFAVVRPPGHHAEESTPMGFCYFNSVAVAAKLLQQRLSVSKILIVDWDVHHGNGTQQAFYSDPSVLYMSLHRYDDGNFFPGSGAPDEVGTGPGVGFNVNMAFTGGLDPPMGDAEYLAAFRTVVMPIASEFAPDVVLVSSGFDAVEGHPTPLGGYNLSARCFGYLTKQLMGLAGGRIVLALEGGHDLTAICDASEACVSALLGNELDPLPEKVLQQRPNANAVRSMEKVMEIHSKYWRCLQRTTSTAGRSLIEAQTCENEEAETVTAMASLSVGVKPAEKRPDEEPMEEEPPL
UniProt Q9UKV0: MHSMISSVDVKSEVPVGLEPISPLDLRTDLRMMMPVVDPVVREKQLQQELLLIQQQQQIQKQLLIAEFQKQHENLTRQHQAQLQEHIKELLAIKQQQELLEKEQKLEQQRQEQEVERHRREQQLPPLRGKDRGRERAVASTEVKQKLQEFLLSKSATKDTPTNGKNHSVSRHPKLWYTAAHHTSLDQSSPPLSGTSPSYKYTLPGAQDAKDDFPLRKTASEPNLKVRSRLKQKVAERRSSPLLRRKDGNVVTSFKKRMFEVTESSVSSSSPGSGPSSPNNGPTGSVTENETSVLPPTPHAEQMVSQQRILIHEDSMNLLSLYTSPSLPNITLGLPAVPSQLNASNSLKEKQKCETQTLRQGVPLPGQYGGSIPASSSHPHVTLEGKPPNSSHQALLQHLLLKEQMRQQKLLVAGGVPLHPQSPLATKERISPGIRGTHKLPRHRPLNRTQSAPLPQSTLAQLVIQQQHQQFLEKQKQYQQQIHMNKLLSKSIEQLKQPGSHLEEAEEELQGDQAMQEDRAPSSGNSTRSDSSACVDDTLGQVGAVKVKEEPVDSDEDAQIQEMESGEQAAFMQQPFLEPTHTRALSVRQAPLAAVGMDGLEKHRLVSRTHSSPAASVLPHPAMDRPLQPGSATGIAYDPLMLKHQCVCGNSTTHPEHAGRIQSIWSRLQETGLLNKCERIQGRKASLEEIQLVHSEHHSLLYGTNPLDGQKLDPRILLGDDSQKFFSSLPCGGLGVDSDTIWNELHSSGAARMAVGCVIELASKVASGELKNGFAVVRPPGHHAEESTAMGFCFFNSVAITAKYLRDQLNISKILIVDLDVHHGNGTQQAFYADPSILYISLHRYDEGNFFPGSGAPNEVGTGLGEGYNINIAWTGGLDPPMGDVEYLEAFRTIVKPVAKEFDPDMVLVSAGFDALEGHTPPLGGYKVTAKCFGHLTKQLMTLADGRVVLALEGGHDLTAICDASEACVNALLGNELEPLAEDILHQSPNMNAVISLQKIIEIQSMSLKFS
UniProt Q969S8: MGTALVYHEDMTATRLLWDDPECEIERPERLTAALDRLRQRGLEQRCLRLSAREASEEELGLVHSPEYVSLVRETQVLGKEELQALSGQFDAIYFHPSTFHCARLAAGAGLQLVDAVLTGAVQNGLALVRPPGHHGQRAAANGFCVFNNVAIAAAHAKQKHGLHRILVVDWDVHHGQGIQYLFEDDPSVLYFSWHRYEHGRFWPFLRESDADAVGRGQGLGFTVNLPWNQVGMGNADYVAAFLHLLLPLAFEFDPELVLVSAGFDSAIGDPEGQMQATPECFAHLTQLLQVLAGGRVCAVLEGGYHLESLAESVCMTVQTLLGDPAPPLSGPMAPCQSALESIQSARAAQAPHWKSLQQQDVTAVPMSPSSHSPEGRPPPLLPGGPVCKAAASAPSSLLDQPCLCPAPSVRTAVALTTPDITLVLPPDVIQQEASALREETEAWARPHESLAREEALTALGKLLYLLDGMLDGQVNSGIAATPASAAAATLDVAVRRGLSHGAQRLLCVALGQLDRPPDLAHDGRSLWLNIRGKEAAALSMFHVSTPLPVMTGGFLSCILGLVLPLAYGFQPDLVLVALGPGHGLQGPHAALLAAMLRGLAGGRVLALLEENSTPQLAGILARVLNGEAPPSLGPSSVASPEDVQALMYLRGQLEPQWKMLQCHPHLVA

In ChEMBL document CHEMBL1144711, “Polyaminohydroxamic acids and polyaminobenzamides as isoform selective histone deacetylase inhibitors” (J Med Chem, 2008):

Biological target: Histone deacetylase (Homo sapiens) (UniProt Q13547+O15379+Q9UBN7+Q92769+Q9UQL6+Q8WUI4+Q9BY41+Q96DB2+P56524+Q9UKV0+Q969S8)
Settings: HeLa, at 1 µM

`CC(C)(C)c1ccc(CNCCCCNCCCNC(=O)CCCCCC(=O)NO)cc1` was tested, and the inhibition was 51.5%.
